{"sequences": {"note": "The chains behind the UniProt entries cited, without tags or fusion partners. Residues count along the entry.", "UniProt Q13490, 267-363": "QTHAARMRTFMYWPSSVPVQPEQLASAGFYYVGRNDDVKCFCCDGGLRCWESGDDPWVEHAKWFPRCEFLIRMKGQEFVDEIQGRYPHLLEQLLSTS", "UniProt P98170, 252-350": "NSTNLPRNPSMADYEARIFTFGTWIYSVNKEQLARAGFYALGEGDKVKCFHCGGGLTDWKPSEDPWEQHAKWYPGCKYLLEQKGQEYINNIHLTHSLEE"}, "source": "patent US9980973B2", "about": "“Bicyclic heterocycle compounds and their uses in therapy” (ASTEX THERAPEUTICS LIMITED, priority 2012, dated 2018)", "key": {"[1]": {"target": "T1, BIR3 domain of human cIAP-1 (Homo sapiens, UniProt Q13490)", "T1 construct": "human cIAP-1 (residues 267-363) fused to a GST-tag; GST-tag (cleaved yes); made in house; host or cells: Escherichia coli", "test": "cIAP-1 in vitro competitive displacement binding assay (fluorescence polarization)", "conditions": "3 h"}, "[2]": {"target": "T2, BIR3 domain of human XIAP (Homo sapiens, UniProt P98170)", "T2 construct": "BIR3 domain of human XIAP (residues 252-350) fused to a His-tag; His-tag (cleaved yes); made in house; host or cells: Escherichia coli", "test": "XIAP in vitro competitive displacement binding assay (fluorescence polarization)", "conditions": "1 h"}, "[3]": {"conditions": "PI at 0.012 μM, read-out: cIAP1 IC50 or PI μM (PI)"}, "[4]": {"conditions": "PI at 0.04 μM, read-out: Xiap IC50 or PI μM (PI)"}, "[5]": {"conditions": "read-out: cIAP1 IC50 or PI μM (PI), PI at 0.012 μM"}, "[6]": {"conditions": "read-out: Xiap IC50 or PI μM (PI), PI at 0.12 μM"}, "[7]": {"conditions": "read-out: Xiap IC50 or PI μM (PI), PI at 0.04 μM"}}, "note": "Counter-ions that a name gives are not always drawn. Like-named read-outs stand apart in the source and are kept apart here."}
{"smiles": "C[C@@H]1CN(CC(=O)N2CC(C)(C)c3ncc(Cc4ccc(F)cc4)cc32)[C@@H](CN2CCC[C@H]2CO)CN1", "note": "[Example 12, 1-{6-[(4-Fluorophenyl)methyl]-3,3-dimethyl-1H,2H,3H-pyrrolo[3,2-b]pyridin-1-yl}-2-[(2R,5R)-2-{[(2S)-2-(hydroxymethyl)pyrrolidin-1-yl]methyl}-5-methylpiperazin-1-yl]ethan-1-one dihydrochloride]", "values": [{"measurement": "inhibition at 0.012 µM", "setting": "[1]; [3]", "value": 85, "unit": "%"}]}
{"smiles": "C[C@@H]1CN(CC(=O)N2CC(C)(C)c3ncc(Cc4ccc(F)cc4)cc32)[C@@H](CN2CCC[C@H]2CF)CN1", "note": "[Example 30, 2-[(2R,5R)-2-{[(2S)-2-(Fluoromethyl)pyrrolidin-1-yl]methyl}-5-methylpiperazin-1-yl]-1-{6-[(4-fluorophenyl)methyl]-3,3-dimethyl-1H,2H,3H-pyrrolo[3,2-b]pyridin-1-yl}ethan-1-one dihydrochloride]", "values": [{"measurement": "inhibition at 0.012 µM", "setting": "[1]; [3]", "value": 97, "unit": "%"}]}
{"smiles": "CC1CC(=O)CCN1C[C@H]1CN[C@H](C)CN1CC(=O)N1CC(C)(C)c2ncc(Cc3ccc(F)cc3)cc21", "note": "(stereo partly drawn) [Example 8, 1-{[(2R,5R)-1-(2-{6-[(4-Fluorophenyl)methyl]-3,3-dimethyl-1H,2H,3H-pyrrolo[3,2-b]pyridin-1-yl}-2-oxoethyl)-5-methylpiperazin-2-yl]methyl}-2-methylpiperidin-4-one dihydrochloride]", "values": [{"measurement": "inhibition at 0.012 µM", "setting": "[1]; [3]", "value": 93, "unit": "%"}]}
{"smiles": "C[C@@H]1CN(CC(=O)N2CC(C)(C)c3ncc(Cc4ccc(F)cc4)cc32)[C@@H](CN2CCCC(F)(F)C2)CN1", "note": "[Example 3, 2-[(2R,5R)-2-[(3,3-Difluoropiperidin-1-yl)methyl]-5-methylpiperazin-1-yl]-1-{6-[(4-fluorophenyl)methyl]-3,3-dimethyl-1H,2H,3H-pyrrolo[3,2-b]pyridin-1-yl}ethan-1-one dihydrochloride]", "values": [{"measurement": "inhibition at 0.012 µM", "setting": "[1]; [3]", "value": 98, "unit": "%"}]}
{"smiles": "C[C@@H]1CN(CC(=O)N2CC(C)(C)c3ncc(Cc4ccc(F)cc4)cc32)[C@@H](CN2CCC[C@H]2C(F)(F)F)CN1", "note": "[Example 36, 1-{6-[(4-Fluorophenyl)methyl]-3,3-dimethyl-1H,2H,3H-pyrrolo[3,2-b]pyridin-1-yl}-2-[(2R,5R)-5-methyl-2-{[(2S)-2-(trifluoromethyl)pyrrolidin-1-yl]methyl}piperazin-1-yl]ethan-1-one]", "values": [{"measurement": "inhibition at 0.04 µM", "setting": "[2]; [4]", "value": 38, "unit": "%"}]}
{"smiles": "C[C@@H]1CN(CC(=O)N2CC(C)(C)c3ncc(Cc4ccc(F)cc4)cc32)[C@@H](CN2CC3CC2CO3)CN1", "note": "(stereo partly drawn) [Example 20, 1-{6-[(4-Fluorophenyl)methyl]-3,3-dimethyl-1H,2H,3H-pyrrolo[3,2-b]pyridin-1-yl}-2-[(2R,5R)-5-methyl-2-{2-oxa-5-azabicyclo[2.2.1]heptan-5-ylmethyl}piperazin-1-yl]ethan-1-one dihydrochloride]", "values": [{"measurement": "inhibition at 0.012 µM", "setting": "[1]; [5]", "value": 90, "unit": "%"}]}
{"smiles": "C[C@@H]1CN(CC(=O)N2CC(C)(C)c3ncc(Cc4ccc(F)cc4)cc32)[C@@H](CN2CCC(F)(F)C2)CN1", "note": "[Example 6, 2-[(2R,5R)-2-[(3,3-Difluoropyrrolidin-1-yl)methyl]-5-methylpiperazin-1-yl]-1-{6-[(4-fluorophenyl)methyl]-3,3-dimethyl-1H,2H,3H-pyrrolo[3,2-b]pyridin-1-yl}ethan-1-one dihydrochloride]", "values": [{"measurement": "inhibition at 0.12 µM", "setting": "[2]; PI at 0.12 μM, read-out: Xiap IC50 or PI μM (PI)", "value": 52, "unit": "%"}]}
{"smiles": "CC(C)[C@@H]1COCCN1C[C@H]1CN[C@H](C)CN1CC(=O)N1CC(C)(C)c2ncc(Cc3ccc(F)cc3)cc21", "note": "[Example 13, 1-{6-[(4-Fluorophenyl)methyl]-3,3-dimethyl-1H,2H,3H-pyrrolo[3,2-b]pyridin-1-yl)-2-[(2R,5R)-5-methyl-2-{[(3R)-3-(propan-2-yl)morpholin-4-yl]methyl}piperazin-1-yl]ethan-1-one dihydrochloride]", "values": [{"measurement": "inhibition at 0.012 µM", "setting": "[1]; [5]", "value": 98, "unit": "%"}, {"measurement": "inhibition at 0.12 µM", "setting": "[2]; [6]", "value": 59, "unit": "%"}]}
{"smiles": "CCCC(F)(F)c1cc2c(cn1)C(C)(C)CN2C(=O)CN1C[C@@H](C)NC[C@@H]1CN1[C@H](C)CN(C(C)=O)C[C@@H]1C", "note": "[Example 93, 2-[(2R,5R)-2-{[(2R,6S)-4-Acetyl-2,6-dimethylpiperazin-1-yl]methyl}-5-methylpiperazin-1-yl]-1-[6-(1,1-difluorobutyl)-3,3-dimethyl-1H,2H,3H-pyrrolo[3,2-c]pyridin-1-yl]ethan-1-one dihydrochloride]", "values": [{"measurement": "inhibition at 0.012 µM", "setting": "[1]; [5]", "value": 80, "unit": "%"}, {"measurement": "inhibition at 0.04 µM", "setting": "[2]; [7]", "value": 50, "unit": "%"}]}
{"smiles": "C[C@@H]1CN(CC(=O)N2CC(C)(C)c3ncc(Cc4ccc(F)cc4)cc32)[C@@H](CN2CC3CCC(C2)O3)CN1", "note": "[Example 18, 1-{6-[(4-Fluorophenyl)methyl]-3,3-dimethyl-1H,2H,3H-pyrrolo[3,2-b]pyridin-1-yl}-2-[(2R,5R)-5-methyl-2-{8-oxa-3-azabicyclo[3.2.1]octan-3-ylmethyl}piperazin-1-yl]ethan-1-one dihydrochloride]", "values": [{"measurement": "inhibition at 0.012 µM", "setting": "[1]; [3]", "value": 97, "unit": "%"}]}
{"smiles": "C[C@@H]1CN(CC(=O)N2CC(C)(C)c3ncc(C(O)c4ccc(F)cc4F)cc32)[C@@H](CN2[C@H](C)COC[C@H]2C)CN1", "note": "(single isomer, unassigned) [Example 103, (R or S)-1-[6-[(2,4-Difluorophenyl)(hydroxy)meth-yl]-3,3-dimethyl-1H,2H,3H-pyrrolo[3,2-b]pyridin-1-yl}-2-[(2R,5R)-2-{[(3R,5R)-3,5-dimethylmorpholin-4-yl]methyl}-5-methylpiperazin-1-yl]ethan-1-one dihydrochloride]", "values": [{"measurement": "inhibition at 0.012 µM", "setting": "[1]; [5]", "value": 97, "unit": "%"}, {"measurement": "inhibition at 0.04 µM", "setting": "[2]; [7]", "value": 69, "unit": "%"}]}
{"smiles": "C[C@@H]1CN(CC(=O)N2CC(C)(C)c3ncc(Cc4ccc(F)cc4)cc32)[C@@H](CN2C[C@@H]3C[C@H]2CO3)CN1", "note": "[Example 7, 1-{6-[(4-Fluorophenyl)methyl]-3,3-dimethyl-1H,2H,3H-pyrrolo[3,2-b]pyridin-1-yl}-2-[(2R,5R)-5-methyl-2-[(1S,4S)-2-oxa-5-azabicyclo[2.2.1]heptan-5-ylmethyl]piperazin-1-yl]ethan-1-one dihydrochloride]", "values": [{"measurement": "inhibition at 0.012 µM", "setting": "[1]; [5]", "value": 80, "unit": "%"}]}
{"smiles": "C[C@@H]1CN(CC(=O)N2CC(C)(C)c3ncc(Cc4ccc(F)cc4)cc32)[C@@H](CN2CCC[C@@H](F)C2)CN1", "note": "[Example 14, 1-{6-[(4-Fluorophenyl)methyl]-3,3-dimethyl-1H,2H,3H-pyrrolo[3,2-b]pyridin-1-yl}-2-[(2R,5R)-2-{[(3R)-3-fluoropiperidin-1-yl]methyl}-5-methylpiperazin-1-yl]ethan-1-one dihydrochloride]", "values": [{"measurement": "inhibition at 0.012 µM", "setting": "[1]; [5]", "value": 98, "unit": "%"}, {"measurement": "inhibition at 0.12 µM", "setting": "[2]; [6]", "value": 62, "unit": "%"}]}
{"smiles": "CC(=O)N1CCN(C[C@H]2CN[C@H](C)CN2CC(=O)N2CC(C)(C)c3ncc(Cc4ccc(F)cc4)cc32)C(C)C1", "note": "(mixture of isomers) [Example 33, 2-[(2R,5R)-2-[(4-Acetyl-2-methylpiperazin-1-yl)methyl]-5-methylpiperazin-1-yl]-1-{6-[(4-fluorophenyl)methyl]-3,3-dimethyl-1H,2H,3H-pyrrolo[3,2-b]pyridin-1-yl}ethan-1-one dihydrochloride]", "values": [{"measurement": "inhibition at 0.04 µM", "setting": "[2]; [4]", "value": 38, "unit": "%"}]}
{"smiles": "C[C@@H]1CN(CC(=O)N2CC(C)(C)c3ncc(Cc4ccc(F)cc4)cc32)[C@@H](CN2CCOCC2(C)C)CN1", "note": "[Example 5, 2-[(2R,5R)-2-[(3,3-Dimethylmorpholin-4-yl)methyl]-5-methylpiperazin-1-yl]-1-{6-[(4-fluorophenyl)methyl]-3,3-dimethyl-1H,2H,3H-pyrrolo[3,2-b]pyridin-1-yl}ethan-1-one dihydrochloride]", "values": [{"measurement": "inhibition at 0.012 µM", "setting": "[1]; [3]", "value": 98, "unit": "%"}, {"measurement": "inhibition at 0.04 µM", "setting": "[2]; [4]", "value": 41, "unit": "%"}]}
{"smiles": "C[C@@H]1CN(CC(=O)N2CC(C)(C)c3ncc(Cc4ccc(F)cc4)cc32)[C@@H](CN2CCOCC23CC3)CN1", "note": "[Example 10, 1-{6-[(4-Fluorophenyl)methyl]-3,3-dimethyl-1H,2H,3H-pyrrolo[3,2-b]pyridin-1-yl}-2-[(2R,5R)-5-methyl-2-{7-oxa-4-azaspiro[2.5]octan-4-ylmethyl}piperazin-1-yl]ethan-1-one dihydrochloride]", "values": [{"measurement": "inhibition at 0.012 µM", "setting": "[1]; [5]", "value": 97, "unit": "%"}, {"measurement": "inhibition at 0.04 µM", "setting": "[2]; [7]", "value": 41, "unit": "%"}]}
{"smiles": "C[C@@H]1CN(CC(=O)N2CC(C)(C)c3ncc(Cc4ccc(F)cc4)cc32)[C@@H](CN2C3CCC2COC3)CN1", "note": "[Example 17, 1-{6-[(4-Fluorophenyl)methyl]-3,3-dimethyl-1H,2H,3H-pyrrolo[3,2-b]pyridin-1-yl}-2-[(2R,5R)-5-methyl-2-{3-oxa-8-azabicyclo[3.2.1]octan-8-ylmethyl}piperazin-1-yl]ethan-1-one dihydrochloride]", "values": [{"measurement": "inhibition at 0.012 µM", "setting": "[1]; [3]", "value": 98, "unit": "%"}]}
{"smiles": "C[C@@H]1CN(CC(=O)N2CC(C)(C)c3ncc(Cc4ccc(F)cc4)cc32)[C@@H](CN2CCC(F)(F)CC2)CN1", "note": "[Example 4, 2-[(2R,5R)-2-[(4,4-Difluoropiperidin-1-yl)methyl]-5-methylpiperazin-1-yl]-1-{6-[(4-fluorophenyl)methyl]-3,3-dimethyl-1H,2H,3H-pyrrolo[3,2-b]pyridin-1-yl}ethan-1-one dihydrochloride]", "values": [{"measurement": "inhibition at 0.012 µM", "setting": "[1]; [3]", "value": 93, "unit": "%"}]}
{"smiles": "C[C@@H]1CN(CC(=O)N2CC(C)(C)c3ncc(Cc4ccc(F)cc4)cc32)[C@@H](CN2CCn3cnnc3C2)CN1", "note": "[Example 71, 1-{6-[(4-Fluorophenyl)methyl]-3,3-dimethyl-1H,2H,3H-pyrrolo[3,2-b]pyridin-1-yl}-2-[(2R,5R)-5-methyl-2-{5H, 6H, 7H, 8H-[1,2,4]triazolo[4,3-a]pyrazin-7-ylmethyl}piperazin-1-yl]ethan-1-one dihydrochloride]", "values": [{"measurement": "inhibition at 0.012 µM", "setting": "[1]; [3]", "value": 97, "unit": "%"}]}
{"smiles": "CO[C@@H]1CN(C[C@H]2CN[C@H](C)CN2CC(=O)N2CC(C)(C)c3ncc(Cc4ccc(F)cc4)cc32)C[C@@H]1F", "note": "(mixture of isomers) [Example 41]", "values": [{"measurement": "inhibition at 0.012 µM", "setting": "[1]; [3]", "value": 97, "unit": "%"}]}
